Measurements from patent US20230365542A1, “Selective Agonists of 5-HT2A Receptor and Methods of Use” (Yale University, priority 2020, published 2023).

Tested on: wild-type (WT) and vesicular monoamine transporter 2 (VMAT2) heterozygous (HET) mice
Assay: Tail suspension test (immobility time) in wild-type and VMAT2 heterozygous mice
Type: in vivo
Details: for immobility time during the tail suspension test: 30 min after administration, 20 mg/kg fluoxetine i.p., compared to vehicle
Method: Tail suspension: This test was conducted as described in the literature (Acta Crystallographica Section D, 2010, 66:486-501). Mice were administered vehicle, fluoxetine (Sigma-Aldrich, St. Louis, MO), 38, or 33 (i.p.). Immobility times were assessed over 6 min using MedAssociates software.
Statistics: Statistical analyses were performed with IBM SPSS Statistics 27 programs (IBM, Chicago, IL). The data are presented as means and standard errors of the mean. No sex effects were detected. One- or two-way ANOVA or repeated measures ANOVA (RMANOVA) were used, followed by Bonferroni corrected post-hoc analyses. A p<0.05 was considered significant. All behavioral results were plotted using GraphPad Prism.

## CNCCC(Oc1ccc(C(F)(F)F)cc1)c1ccccc1 (stereo not drawn) [fluoxetine, reference compound]
VMAT2-heterozygous mice, tail suspension
  dose restoring wild-type levels of mobility, relative to 0.5 mg/kg of 38 and 1 mg/kg of 33: 40 to 20 fold
VMAT2 HET mice
  immobility time during the tail suspension test: reduced immobility time significantly
WT mice
  immobility time during the tail suspension test: no effects
